Test results reported in article PMC13434705, “TRIM21-mediated ubiquitination of PARP1 regulated by the PI3K/AKT-STAT5A axis suppresses small cell lung cancer” (Nature Communications, 2026).

Target: T1, His-PARP1, recombinant full-length (pET-28a-PARP1(FL)) (human)
T1 construct: PARP1, human, full length (FL), pET-28a plasmid, a gift from Caihong Yun; The His6 tag is followed by a TEV cleavage site (ENLYFQG); His tag kept in the His pull-down; also called recombinant PARP1; source: E. coli BL21(DE3), purified (Ni2+-agarose); not shown: His6, N-terminal, kept
Assay: pull-down; GST pull-down: 25 μg GST-TRIM21 on GST-tag resin, 25 μg recombinant PARP1, 2 h at 4 °C; Tris-HCl 50 mM, NaCl 200 mM, EDTA 1 mM, NP-40 1%, DTT 1 mM, MgCl2 10 mM, pH 8.0
Settings: both partners purified

B1: GST-TRIM21, recombinant full-length (natural protein, human, UniProt P19474 1-475, looked up)
chain: MASAARLTMMWEEVTCPICLDPFVEPVSIECGHSFCQECISQVGKGGGSVCPVCRQRFLLKNLRPNRQLANMVNNLKEISQEAREGTQGERCAVHGERLHLFCEKDGKALCWVCAQSRKHRDHAMVPLEEAAQEYQEKLQVALGELRRKQELAEKLEVEIAIKRADWKKTVETQKSRIHAEFVQQKNFLVEEEQRQLQELEKDEREQLRILGEKEAKLAQQSQALQELISELDRRCHSSALELLQEVIIVLERSESWNLKDLDITSPELRSVCHVPGLKKMLRTCAVHITLDPDTANPWLILSEDRRQVRLGDTQQSIPGNEERFDSYPMVLGAQHFHSGKHYWEVDVTGKEAWDLGVCRDSVRRKGHFLLSSKSGFWTIWLWNKQKYEAGTYPQTPLHLQVPPCQVGIFLDYEAGMVSFYNITDHGSLIYSFSECAFTGPLRPFFSPGFNDGGKNTAPLTLCPLNIGSQGSTDY
notes: TRIM21, human, cDNA expressing full-length TRIM21 cloned into pEXG-4T-1 (so in the source); GST kept in the GST pull-down (held on GST resin); the methods also describe removal of tags with TEV or thrombin; also called GST-tagged TRIM21; recombinant TRIM21; source: E. coli BL21(DE3), purified (GST-tag Purification Resin)
- binding result: binds
